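Briefly, cells in 96-well plates were exposed to five compound concentrations for 48 h, and endpoints were estimated by linear interpolation. Here, GI50 denotes the concentration required for 50% inhibition of growth. At the TGI there is no net growth.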
Tested on: MDA-MB-468 breast
Assay: NCI-60 cell line screen, 48 h

## N#CC1(Nc2ccc(Cl)cc2)CCN(Cc2ccccc2)CC1
  GI50: 27.5 µM
  TGI: > 100 µM

From PubChem BioAssay (NCI)
